Patent US7078585B1, “Bacterial cell component-unresponsive model mouse” (Japan Science and Technology Agency, priority 1999, dated 2006)

What was measured:
thymocytes = assay: Thymocyte (T cell) proliferation with IL-1 costimulation ([3H]thymidine); assay type: cell-based, mouse; conditions: 20 ng/ml IL-2 with 10 ng/ml PMA or 2.5 μg/ml Con A
Experimental: 1×10^5 of thymocytes of the MyD88 knockout mice of the present invention were cultured in 96-well plates for 72 hours with mixtures containing 2 μg/ml of phytohemagglutinin (PHA), which is a costimulant of IL-1 for T cell proliferation, 2.5 μg/ml of concanavalin A (ConA), or 2 ng/ml of IL-2 respectively, and 100 U/ml of IL-1β (Genzyme), and T cells were proliferated. Proliferation of T cells were examined by measuring [^3H] amount of [^3H] thymidine taken into the cells.
Further, thymocytes of MyD88 knockout mice of the present invention were cultured with 10 ng/ml of phorbol 12-myristate 13-acetate paramethoxyamphetamine (PMA) or 2.5 μg/ml of Con A in the presence of 20 ng/ml of IL-2 (Genzyme) in a same manner as above-mentioned, and enhancement of proliferation was examined. There was no difference between thymocytes of MyD88 knockout mice of the present invention and of wild-type littermates in their proliferation as to the reaction of IL-2 and PMA or Con A (see FIG. 3).

YAC-1 targeting cells = assay: NK lytic activity against 51Cr-labelled YAC-1 target cells; assay type: cell-based, mouse; conditions: splenic cells of MyD88 knockout mice, 24 hours
Experimental: It has been well known that IL-18 enhances lytic activity of NK cells. Splenic […] from MyD88 knockout mice of the present invention and wild-type littermates were cultured in the presence or absence of 20 ng/ml of IL-18 (Hayashibara Biochemical Laboratories, Inc.) for 24 hours with ^51Cr-labelled mouse lymphoma cells (hereinafter “YAC-1”) targeting cells. 4 hours later, released ^51Cr in supernatants were counted by a gamma counter.

## IL-2: IL-2 (Genzyme), cytokine
thymocytes
  proliferation of thymocytes, MyD88 knockout versus wild-type littermates: no difference
YAC-1 targeting cells
  lytic activity to YAC-1 targeting cells: lytic activity was also enhanced
